Test results: PubChem BioAssay AID602346 (Broad Institute, 2012)
Only a part is listed here, and it is no random draw. Activity calls are given as the source filed them. Rule as the data show it: active = inhibition above about 50% (passing the limit was not always enough); inconclusive = no clear call, values can overlap the other calls; inactive = below about 31%.

Assay: HIV Vif self-association inhibitors, primary screen, imaging, HEK293T, single point (AID 602346)
Details: HEK293T cells, Vif self-association by quenched fluorescence, 24 h, at 7.49 µM, hits give high values

| Compound | inhibition |
| --- | --- |
| Cc1nn(-c2ccccc2)c2c1P(=O)(N1CCOCC1)N(C)C(c1ccccc1)=N2 (stereo not given) | inactive: 0.12% |
| Cc1ccc(C(=O)OC2CN3CCC2CC3)cc1 (stereo not given) | inactive: 16% |
| CC1CCC(C(C)C)C(OP(=O)(Nc2ccccn2)c2ccccc2)C1 (stereo not given) | inactive: -11.1% |
| CN(C)C1(CNC(=O)c2ccc(S(C)(=O)=O)cc2)CCCCC1 | inactive: 4.16% |
| O=C(/C=C/c1ccccc1)OC1CN2CCC1CC2 (stereo not given) | inactive: -17% |
| CCCC1OP(=O)(Nc2ccccc2)OCC1CC (stereo not given) | inactive: 10.9% |
| O=P1(Nc2ncccn2)COc2ccccc2OC1 | inactive: 2.29% |
| Nc1cccc([As](=O)(O)c2ccccc2)c1 | inactive: 1.82% |
| NS(=O)(=O)c1cccc(NC(=O)COC(=O)C(O)(c2ccccc2)c2ccccc2)c1 | inactive: 0.6% |
| O=P1(Nc2ccc(Br)cn2)COc2ccccc2OC1 | inactive: -13.3% |
| O=[As](O)(c1cccs1)c1cccs1 | inactive: -0.0285% |
| Cc1ccc(OCC(=O)OC2CN3CCC2CC3)cc1 (stereo not given) | inactive: -0.832% |
| CCC1=CC2Cc3nc4ccc(Cl)cc4c(N)c3C(C1)C2 (stereo not given) | inactive: -0.395% |
| O=P1(Nc2ccccn2)COc2ccccc2OC1 | inactive: -7.04% |
| CCOP(=O)(NC(=NC(C)c1ccccc1)NC(C)c1ccccc1)OCC (stereo not given) | inactive: -10.8% |
| CN(CCCl)Cc1cc(Cl)c(NC2=NCCN2)c(Cl)c1 | inactive: -4.38% |
| CCOP(=O)(Nc1ccc(C)cn1)OCC | inactive: 20.2% |
| Clc1n[nH]nc1-c1nn[nH][15n]1 | inactive: -14.5% |
| O=P1(N(CCCl)CCCl)NCCC(C(F)(F)F)O1 (stereo not given) | inactive: 1.41% |
| CC(C)(C)C(=O)NC(Sc1ncccn1)C(Cl)(Cl)Cl (stereo not given) | inactive: -1.77% |
| COc1ccccc1CNC(=O)COC(=O)C(O)(c1ccccc1)c1ccccc1 | inactive: 13.1% |
| CN(C(=O)Cc1ccc(Cl)c(Cl)c1)[C@@H]1CCCC[C@H]1N1CCCC1 | inactive: -3.56% |

| Compound | inhibition |
| --- | --- |
| CC(C)/C=N\N=C(\N)N[N+](=O)[O-] | inactive: -22.2% |
| CC1(CBr)Cn2c(nc3ccccc3c2=O)S1 (stereo not given) | inactive: 7.07% |
| O=C(OC1CN2CCC1CC2)c1ccc(Cl)cc1 (stereo not given) | inactive: 2.05% |
| COc1cc(C(=O)NCC2(N3CCOCC3)CCCCC2)cc(Cl)c1OC(C)C | inactive: -7.06% |
| O=[As](O)(O)c1cccnc1 | inactive: 2.11% |
| CS(=O)(=O)c1ccc(Cl)c(NC(=O)COC(=O)C(O)(c2ccccc2)c2ccccc2)c1 | inactive: 9.51% |
| O=[As](O)(c1cccc(O)c1)c1cccc(O)c1 | inactive: -15.6% |
| Cc1cccc(OCC(=O)OC2CN3CCC2CC3)c1 (stereo not given) | inactive: 0.048% |
| Nc1cccc2c([As](=O)(O)O)cccc12 | inactive: 1.01% |
| Cc1ccc(NCCc2c([N+](=O)[O-])cc([N+](=O)[O-])cc2[N+](=O)[O-])cc1 | inactive: -2.23% |
| CCCOP(=S)(Nc1nc(N)cc(=O)[nH]1)OCCC | inactive: 6.08% |
| COc1cc(C2NCCC3(OCCO3)C2(C)C)cc(OC)c1OC (stereo not given) | inactive: -1.28% |
| CCOP(=O)(Nc1cccc2ccccc12)OCC | inactive: 1.57% |
| O=P(Nc1nccs1)(Oc1ccccc1)Oc1ccccc1 | inactive: 2.97% |
| CS(=O)(=O)c1cc([N+](=O)[O-])c2no[n+]([O-])c2c1 | inactive: 10.2% |
| Nc1ccccc1[As](=O)(O)c1ccccc1 | inactive: -7.02% |
| N#CCCN(C(=O)COC(=O)C(O)(c1ccccc1)c1ccccc1)c1ccc(F)cc1 | inactive: 4.95% |
| CN(C(=O)Cc1ccccc1)[C@@H]1CC[C@]2(CCCO2)C[C@H]1N1CCCC1 | inactive: -5.35% |
| CCOP1(=S)c2c(C)nn(CCC#N)c2N=C(c2ccc(F)cc2)N1C (stereo not given) | inactive: -6.14% |
| CN(C)C(=O)c1cc([N+](=O)[O-])cc2c1-c1c(cc([N+](=O)[O-])cc1[N+](=O)[O-])C2=O | inactive: -35.8% |
| O=[N+]([O-])c1ccc2c(c1)nnn2O | inactive: -2.24% |
| CN(C(=O)Cc1ccc(Cl)c(Cl)c1)[C@H]1CC[C@@]2(CCCO2)C[C@@H]1N1CCCC1 | inactive: -8.25% |

| Compound | inhibition |
| --- | --- |
| C[As](=O)(O)c1cccc(C(=O)O)c1 | inactive: -0.471% |
| O=[As](O)(c1ccc(O)cc1)c1ccccc1O | inactive: -0.236% |
| COc1cc(C(=O)NCC2(N3CCOCC3)CCCCC2)ccc1OCC(C)C | inactive: -2.2% |
| O=[N+]([O-])c1ccc(-c2cc([N+](=O)[O-])c(O)c([N+](=O)[O-])c2)cc1 | inactive: 8.5% |
| Cc1ccc(OP(=O)(Nc2ccc([N+](=O)[O-])cn2)Oc2ccc(C)cc2)cc1 | inactive: 4.6% |
| Cc1ccc2nc3c(c(C)c2c1)CC(C(Cl)Cl)S3 (stereo not given) | inactive: 0.324% |
| ClCCSc1nnc(-c2cccnc2)o1 | inactive: 10.5% |
| CC(C)c1ccc(OP(=O)(Nc2ccccn2)Oc2ccccc2F)cc1 (stereo not given) | inactive: -9.3% |
| COC(=O)C1(C)COP(=O)(N2CCCCCC2)OC1 (stereo not given) | inactive: -4.63% |
| O=C(OC1CN2CCC1CC2)c1cccc2[nH]cnc12 (stereo not given) | inactive: 1.74% |
| CCN(CC)C(=S)SC(NC=O)C(Cl)(Cl)Cl (stereo not given) | inactive: 3.39% |
| CC(C)NC(=O)NP(=O)(Oc1ccccc1)Oc1ccccc1 | inactive: -4.21% |
| O=[N+]([O-])c1cc([N+](=O)[O-])c(-c2ccn[nH]2)s1 | inactive: 0.38% |
| Cc1c2c(nc3ccccc13)SC(C(Cl)Cl)C2 (stereo not given) | inactive: 6.17% |
| O=C(OC1CN2CCC1CC2)C12CC3CC(CC(C3)C1)C2 (stereo not given) | inactive: 2.8% |
| Cc1cc(=O)[nH]c(N[N+](=O)[O-])n1 | inactive: 2.53% |
| O=P1(N(CCCl)CCCl)Nc2ccccc2N1 | inactive: -2.25% |
| O=P1(N(CCCl)CCCl)OCCCN1CCCl (stereo not given) | inactive: 6.93% |
| COc1ccc2nc(NP(=O)(c3ccccc3)c3ccccc3)sc2c1 | inactive: 3.06% |
| COc1cc(I)ccc1[As](=O)(O)O | inactive: 9.36% |
| O=[N+]([O-])c1cc(Oc2ccc([N+](=O)[O-])cc2C(F)(F)F)cc([N+](=O)[O-])c1 | inactive: -8% |
